Source: paper PMC9124818 (Pharmacology Research & Perspectives, 2022)
“And” between values parts separate entries of the source, which are not always exact repeats. Equal entries are not always repeated. Where two headings read alike, the source gives them in different places.

The chains behind the UniProt entries cited, without tags or fusion partners. Residues count along the entry.
UniProt Q86VL8, 1-566 isoform Q86VL8-3: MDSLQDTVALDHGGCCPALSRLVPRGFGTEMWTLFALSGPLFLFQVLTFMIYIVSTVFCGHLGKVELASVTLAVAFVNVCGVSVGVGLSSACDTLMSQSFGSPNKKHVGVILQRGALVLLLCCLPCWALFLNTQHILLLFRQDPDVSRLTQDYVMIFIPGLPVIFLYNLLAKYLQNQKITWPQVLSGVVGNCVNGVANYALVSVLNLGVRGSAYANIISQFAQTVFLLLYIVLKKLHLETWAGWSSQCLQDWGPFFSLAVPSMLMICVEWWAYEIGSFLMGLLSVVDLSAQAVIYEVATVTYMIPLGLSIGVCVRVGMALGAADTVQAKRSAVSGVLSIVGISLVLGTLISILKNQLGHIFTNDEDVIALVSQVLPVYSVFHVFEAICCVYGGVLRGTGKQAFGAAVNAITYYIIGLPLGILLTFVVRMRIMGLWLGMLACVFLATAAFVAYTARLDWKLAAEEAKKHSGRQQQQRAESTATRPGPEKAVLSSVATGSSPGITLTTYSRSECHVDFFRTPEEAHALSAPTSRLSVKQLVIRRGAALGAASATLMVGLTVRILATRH

Key:
[1] = cited from earlier work
[2] = molecular target: T1, MATE1 (Homo sapiens, UniProt Q96FL8); experiment: Transporter inhibition, uptake of [14C]-metformin in HEK293 cells; type: in vitro ADME; settings: probe [14C]-metformin 10 μM
T1 construct: host or cells: HEK293
T1 sequence (Q96FL8 1-570): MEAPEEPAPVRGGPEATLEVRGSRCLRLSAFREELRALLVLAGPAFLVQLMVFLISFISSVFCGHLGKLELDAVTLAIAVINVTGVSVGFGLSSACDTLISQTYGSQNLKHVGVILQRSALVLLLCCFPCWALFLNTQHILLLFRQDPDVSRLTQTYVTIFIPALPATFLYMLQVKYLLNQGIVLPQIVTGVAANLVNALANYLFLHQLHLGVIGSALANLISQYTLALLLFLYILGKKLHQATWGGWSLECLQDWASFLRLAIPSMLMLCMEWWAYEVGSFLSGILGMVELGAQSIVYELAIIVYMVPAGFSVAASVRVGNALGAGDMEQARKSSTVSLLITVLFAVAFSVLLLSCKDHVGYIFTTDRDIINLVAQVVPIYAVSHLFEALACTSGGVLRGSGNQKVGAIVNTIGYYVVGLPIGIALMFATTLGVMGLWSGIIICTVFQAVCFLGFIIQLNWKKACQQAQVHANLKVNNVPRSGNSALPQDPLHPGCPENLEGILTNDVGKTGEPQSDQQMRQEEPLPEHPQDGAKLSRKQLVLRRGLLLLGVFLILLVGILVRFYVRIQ
Procedure: (§1) The test compound (FFA or nFFA) or the positive control substrate ([…], respectively) was added to the donor chamber. […] Cells were then washed, lysed with scintillation cocktail, and analyzed for the probe substrate with a MicroBeta scintillation counter (PerkinElmer, Hopkinton, MA). Transcellular transporter assay conditions are described in Supplemental Table 1. Calculation of IC50 values was based on bidirectional permeability of probe substrate with and without the inhibitor in MDCKII cells expressing BCRP and in Caco‐2 cells expressing P‐gp, and transporter‐dependent uptake of probe substrate in HEK293 cells expressing all other transporters (Supplemental Table 1).
(§2) The transporter-specific uptake of the probe substrate in cells was determined by subtracting the accumulation in the control cells from the accumulation in the transporter-expressing cells.

[3] = molecular target: T2, MATE2‐K (Homo sapiens, UniProt Q86VL8); experiment: as above; type: in vitro ADME; settings: probe [14C]-metformin 10 μM
T2 construct: host or cells: HEK293
Procedure: as §1, §2

**Q.** For `CCNC(C)Cc1cccc(C(F)(F)F)c1` (racemic) [FFA, (RS)‐ethyl(α‐methyl‐3‐trifluoromethylphenethyl)amine, reference compound], which “Cmax, total” value ([1]; maximum plasma concentration, modeled (PopPK), 26 mg/day FFA base, 13 mg twice daily, ref Prescribing information: https://www.fintepla.com/) is on record?
**A.** 68.0 ng/mL

**Q.** What about the ka ([1]; ref Modeled (PopPK)) of the same compound?
**A.** 0.69 h⁻¹

**Q.** And the IC50 ([2]; IC50, HEK293)?
**A.** 9.02 µM and 9 µM

**Q.** For `CC(N)Cc1cccc(C(F)(F)F)c1.Cl` (centres unmarked) [nFFA, [1‐(3‐trifluoromethyl)phenyl]propan‐2‐amine hydrochloride], which IC50 [3] is on record?
**A.** > 50 µM

**Q.** And the IC50 ([2]; HEK293, read-out: IC50)?
**A.** 4.6 µM
